Sequences of proteins named here, by UniProt entry; tags and fusion partners are left off. Residues count along the entry.
UniProt Q16637, 80-170: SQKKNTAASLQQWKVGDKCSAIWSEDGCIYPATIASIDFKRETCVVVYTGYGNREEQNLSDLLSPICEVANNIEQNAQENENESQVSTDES
UniProt Q9H7E2, 520-633: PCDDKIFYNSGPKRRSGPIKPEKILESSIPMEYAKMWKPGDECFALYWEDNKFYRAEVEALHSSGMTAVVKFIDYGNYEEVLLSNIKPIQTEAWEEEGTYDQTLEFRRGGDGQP

In PMC3281842, “Crystal Structure of TDRD3 and Methyl-Arginine Binding Characterization of TDRD3, SMN and SPF30” (PLoS ONE, 2012):

Columns and labels:
Conditions in all cases: fluorescein-labeled peptide, 20 mM Tris pH 7.5, 50 mM NaCl, 1 mM DTT, 0.01% Triton X-100, 25°C, average of three independent measurements, NB = no detectable binding
SMN (aa 80–170) = molecular target: T1, SMN (aa 80–170) (Homo sapiens, UniProt Q16637); test: Fluorescence polarization binding assay, SMN Tudor domain
T1 construct: SMN (aa 80–170); His tag (pET28-MHL) (N); made in house; host or cells: Escherichia coli BL21 (DE3)
Method: (§1) Figure 1 Fluorescence polarization binding curves of TDRD3 (aa 520–633), SMN (aa 80–170), and SPF30 (aa 65–150) to the PIWIL1-R4 peptides. The buffer used in the fluorescence polarization assay is 20 mM Tris pH 7.5, 50 mM NaCl, 1 mM DTT and 0.01% Triton X-100. The data are measured at 25°C and corrected for background by subtracting the free-labeled peptide background. The Kd values are the average of three independent measurements.
(§2) All the regular and fluorescent peptides used this study were synthesized by Tufts University Core Services (Boston, USA). The fluorescence polarization assay was carried out as described before. The buffer used in the fluorescence polarization assay is 20 mM Tris pH 7.5, 50 mM NaCl, 1 mM DTT and 0.01% Triton X-100. An excitation wavelength of 485 nm and an emission wavelength of 528 nm are used. The data are measured at 25°C and corrected for background by subtracting the free-labeled peptide background. The data were collected by the Synergy 2 (BioTec, USA) fluorescence polarization program and were fit to one-site binding model using Origin 7 (MicroCal, Inc.). The Kd values are the average of three independent measurements.

TDRD3 (aa 520–633) = molecular target: T2, TDRD3 (aa 520–633) (Homo sapiens, UniProt Q9H7E2); test: Fluorescence polarization binding assay, TDRD3 Tudor domain
T2 construct: TDRD3 (aa 520–633); His tag (pET28-MHL) (N); made in house; host or cells: Escherichia coli BL21 (DE3)
Method: TDRD3 contains a Tudor domain at its C-terminus. […] In order to characterize its binding specificity and affinity quantitatively, we performed a series of fluorescence polarization (FP) binding assays using our fluorescein-labeled peptide library, which includes GAR motif-containing SmD3 and PIWIL1 peptides, PGM motif-containing SmB peptides, and histone H3R2 peptides (Table 1 and Fig. 1). A low salt concentration (50 mM NaCl) is used in the FP binding assay due to the weak binding affinities of these proteins to their ligands. […]
as §1, with “The Kd values are the average of three independent measurements.” left out
All the regular and fluorescent peptides used this study were synthesized by Tufts University Core Services (Boston, USA). The fluorescence polarization assay was carried out as described before. The buffer used in the fluorescence polarization assay is 20 mM Tris pH 7.5, 50 mM NaCl, 1 mM DTT and 0.01% Triton X-100. […] The data are measured at 25°C and corrected for background by subtracting the free-labeled peptide background. […]

SPF30 (aa 65–150) = molecular target: T3, SPF30 (aa 65–150) (Homo sapiens, UniProt O75940); test: Fluorescence polarization binding assay, SPF30 Tudor domain
T3 construct: SPF30 (aa 65–150); His tag (pET28-MHL) (N); made in house; host or cells: Escherichia coli BL21 (DE3)
T3 sequence (O75940 65-150): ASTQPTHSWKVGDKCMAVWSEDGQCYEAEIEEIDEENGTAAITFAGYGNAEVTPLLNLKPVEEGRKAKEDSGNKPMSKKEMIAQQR
Method: as §1, §2

Kd (SMN (aa 80–170)): > 300 µM | Kd (TDRD3 (aa 520–633)): > 500 µM | Kd (SPF30 (aa 65–150)): > 500 µM
Structure (SMILES): C[C@H](NC(=O)[C@H](CCCNC(=N)N)NC(=O)CNC(=O)[C@H](CCCNC(=N)N)NC(=O)[C@H](C)NC(=O)[C@H](CCCNC(=N)N)NC(=O)[C@H](C)NC(=O)[C@H](CCCNC(=N)N)NC(=O)[C@H](C)NC(=O)[C@H](CCCNC(=N)N)NC(=O)CNC(=O)[C@@H](N)[C@@H](C)O)C(=O)N[C@@H](CCCNC(=N)N)C(=O)NCC(=O)N[C@@H](CCC(N)=O)C(=O)N[C@@H](CCC(=O)O)C(=O)O [PIWIL1-R4un]
